What was measured:
[1] = biological target: T1, FXR (Homo sapiens, UniProt Q96RI1); assay: CHO cell-based FXR luciferase reporter assay (Indigo Biosciences)
T1 construct: host or cells: CHO cells
T1 sequence (Q96RI1 1-486): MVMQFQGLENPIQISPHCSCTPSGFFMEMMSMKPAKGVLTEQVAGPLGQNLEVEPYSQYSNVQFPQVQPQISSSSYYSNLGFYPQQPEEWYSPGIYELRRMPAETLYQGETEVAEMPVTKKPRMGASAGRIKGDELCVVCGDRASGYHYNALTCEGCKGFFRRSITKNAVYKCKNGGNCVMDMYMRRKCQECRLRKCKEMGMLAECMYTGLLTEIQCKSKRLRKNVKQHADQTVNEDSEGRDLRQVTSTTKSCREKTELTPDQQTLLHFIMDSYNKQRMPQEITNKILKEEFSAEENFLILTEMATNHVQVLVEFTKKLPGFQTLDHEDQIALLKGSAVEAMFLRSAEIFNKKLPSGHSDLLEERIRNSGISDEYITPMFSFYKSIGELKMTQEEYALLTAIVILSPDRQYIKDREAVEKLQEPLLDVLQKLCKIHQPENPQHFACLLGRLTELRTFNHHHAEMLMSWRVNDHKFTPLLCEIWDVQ
Protocol: To evaluate direct agonist activities against FXR, test compounds were evaluated using a CHO cell-based FXR assay by Indigo Biosciences (State College, PA), in which cells were transfected with an FXR luciferase reporter system.
To directly evaluate the in vitro agonist activity towards FXR, test compounds were evaluated in CHO cells transfected with FXR responsive luciferase reporter (Nuclear Receptor & In Vitro Toxicology Solutions, Indigo Biosciences, State College, PA, USA). […] Each compound was tested in duplicate, and the average value was reported[35],[36]. […]
To directly evaluate the in vitro agonist activity towards FXR, test compounds were evaluated in CHO cells transfected with FXR responsive luciferase reporter (Nuclear Receptor & In Vitro Toxicology Solutions, Indigo Biosciences, State College, PA, USA). […]

[2] = biological target: T2, TGR5 (Homo sapiens, UniProt Q8TDU6); assay: TGR5 cAMP assay in CHO cells transfected with TGR5 (cAMP Hunter eXpress, Discover X); type: cell-based; settings: % vs INT-767 10 µM as 100%
T2 construct: host or cells: CHO cells
T2 sequence (Q8TDU6 1-330): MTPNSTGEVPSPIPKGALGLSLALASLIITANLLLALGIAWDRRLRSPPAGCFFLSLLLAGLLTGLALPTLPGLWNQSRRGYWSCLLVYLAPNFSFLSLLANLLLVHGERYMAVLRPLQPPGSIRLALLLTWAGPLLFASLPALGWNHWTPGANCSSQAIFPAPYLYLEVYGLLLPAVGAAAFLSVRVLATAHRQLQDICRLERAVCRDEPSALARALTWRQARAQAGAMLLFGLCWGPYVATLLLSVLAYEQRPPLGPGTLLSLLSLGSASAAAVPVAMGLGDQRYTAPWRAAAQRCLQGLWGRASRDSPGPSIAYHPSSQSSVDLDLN
Protocol: TGR5 agonist activity was evaluated by transfecting CHO cells with TGR5 using the Discover X expression kit (cAMP Hunter eXpress GPCR Assay, Discover X Fremont, CA). Cells were incubated with test compounds for 0.5 h, and intracellular cAMP levels were measured using the multi-mode microplate reader.
(§1) TGR5 agonist activity was evaluated by transfecting CHO cells with TGR5 using the Discover X expression kit (cAMP Hunter eXpress Assay Kit, Discover X Fremont, CA, USA). Cells were incubated with the test compounds for 0.5 h, and intracellular cAMP levels were measured using Multi-Mode Microplate Reader (FlexStation 3, Molecular Devices Inc., San Jose, CA, USA).
Each compound was tested at concentrations of 10, 1, or 0.1 µM in duplicate (n = 2), with the average value shown.
S4. In vitro, in vivo assay, and selectvity. […]
In vitro TGR5 agonist assay protocol
as §1
Each compound was tested at concentrations of 10, 1, or 0.1 µM in duplicate (n=2), with the […]

Structure (SMILES): CN(C)c1ccc(-c2ccc(CN(C(=O)c3ccc(O)cc3)c3cc(Cl)cc(Cl)c3)cc2)cc1 [Compound 13ad]
- FXR agonist activity (in words) [1]: strong FXR activities
- FXR Efficacy (%) (1 µM) ([1]; 1 µM, % vs OCA 1 µM as 100%): 88.2%
- TGR5 Efficacy (%) (10 µM) [2]: 4.4%
